Laboratory results: BindingDB's records for 28684009

Target: Acetylcholinesterase (Homo sapiens, UniProt P22303)

Row | Compound | Kd [µM]
1 | COc1cc2c(cc1OC)CN(CC1CCN(Cc3cc(F)cc(/C=N/O)c3O)CC1)CC2 | 268
2 | COc1cc2c(cc1OC)CN(CC1CCN(Cc3cc(Cl)cc(/C=N/O)c3O)CC1)CC2 | 262
3 | COc1cc2c(cc1OC)CN(CC1CCN(Cc3cc(Br)cc(/C=N/O)c3O)CC1)CC2 | 204
4 | COc1cc(/C=N/O)c(O)c(CN2CCC(CN3CCc4cc(OC)c(OC)cc4C3)CC2)c1 | 512
